Data published in PubChem BioAssay AID504842 (National Center for Advancing Translational Sciences (NCATS), 2011).
Only a part is listed here, and it is no random draw. Some tests of the compounds listed are not included; inactive here does not mean inactive elsewhere. Active and inactive are the calls of the source. The call rests on the fitted dose curve; in most records, active means well fitted inhibition curve with a large enough effect; inconclusive means small, poorly fitted or top-dose-only effect; inactive means flat fitted curve, though single readings scatter.
Further: nearly all actives have a fitted effect of over 80% in size.
On the % scale 0 is the no-effect control and ±100 the full control effect.

These molecules were tested on Chaperonin Mm-Cpn (Methanococcus maripaludis) (assay: Inhibitors of TCP-1 ring complex (TRiC) of Methanococcus maripaludis (MmCpn): qHTS). Conditions: purified Mm-Cpn ATPase, ADP Transcreener TR-FRET; at 76.9 µM (top of the series).
Excerpt: The eukaryotic chaperonin TRiC (for TCP-1 ring complex) is an essential and conserved chaperone required for the folding and activation of 10-15% of the proteins encoded by the human genome. […] The TRiC complex consist of two stacked 7-9 membered rings, each containing a central cavity. Substrates are folded within the cavity in an ATP-dependent manner. TRiC is a complex of eight different, essential proteins. As each of the genes encoding the eight subunits is essential for cell viability and no protocol has been developed to over-express this enzyme to high levels. That is why several groups studying the TRiC chaperonin have turned to the archaeal homolog of TRiC, Methanococcus maripaludis (Mm-CPN), and have used this enzyme as a model system for the study of the type II chaperonin family. Small molecule inhibitors of the Mm-CPN enzyme would be extremely useful to study the mechanism of chaperonin activity. Importantly, TRiC and Mm-CPN both require ATP hydrolysis for function. Furthermore, the ATP binding sites are highly conserved among these type II chaperonins. This provides us with an easy, well tested and straightforward assay to identify inhibitors of chaperonin activity. The Mm-CPN assay was developed in 1536-well plate format using the HTRF Transcreener ADP assay kit (Cisbio, Bedford, MA). This assay applied the time resolved fluorescence resonance energy transfer (TR-FRET) principle. ATP in the presence of Mm-CPN is converted to ADP + Pi. An antibody labeled with Eu3+-Cryptate specific and bound to ADP labeled with […] (d2) competes with the unlabeled ADP generated by Mm-CPN. The resulting TR-FRET signal is inversely proportional to the concentration of ADP in the sample. In this assay a reduction in TR-FRET signal is observed with ATP turnover. NIH Chemical Genomics Center [NCGC] NIH Molecular Libraries Probe Centers Network [MLPCN] MLPCN Grant: DA030554-01A1 Assay Submitter (PI): Judith Frydman, Stanford University
Purified Mm-CPN was supplied by the laboratory of Dr. Judith Frydman. Protein samples were stored at -80C as single use aliquots. Protein was thawed in ambient temperature water bath and placed on ice once thawed. Buffer was prepared fresh day of screen. The buffer composition below was used to prepare the working solution of the Mm-CPN protein and ATP substrate. The buffer is comprised of 30 mM TRIS pH 7.4, 100mM KCl, 5mM MgCl2, and 1mM DTT. A final concentration of 25nM Mm-CPN and 10uM ATP per well were used in the screen. Instructions according to the manufacturer were followed for the ADP Transcreener kit. Used 1536 well Greiner white, medium binding (MB), solid bottom plates. Plates were read on the PerkinElmer EnVision plate reader using Excitation = 320 nm and Emission = […], 665 nm. Protocol- 1.Dispense 1.5ul per well of working [Mm-CPN] = 50nM (or 75 ng / well) 2.Spin plate at 1000 rpm for 30 seconds 3.23nl of compound transferred per well 4.Incubate at 37degC for 10 minutes 5.Dispense 1.5ul per well of working [ATP] = 20uM 6.Incubate at 37degC for 30 minutes 7.Dispense 3ul per well of Anti-ADP Cryptate / ADP-d2 mix (prepared as instructed by Cisbio) 8.Incubate at ambient for 30 minutes 9.Read using EnVision
With `O=C(NCC1(N2CCCCC2)CCCCC1)c1cc([N+](=O)[O-])ccc1Cl` the activity, negative = inhibition was inactive: 0.183%.
For `CN1[C@@H]2CC[C@H]1CC(OC(=O)C(O)(c1ccccc1)c1ccccc1)C2` (some centres undefined), the activity, negative = inhibition was inactive: 0.227%.
For `CCN(CC)CC(C)C(C)OC(=O)C(O)(c1ccccc1)c1ccccc1` (centres undefined), the activity, negative = inhibition was inactive: -3.25%.
In the case of `COc1cc(SC)ccc1C(=O)NCC1(N(C)C)CCCCC1`, the activity, negative = inhibition is reported as inactive: -0.0144%.
In the case of `CC(C)N1C(=O)CC2(CCN(CCOC(=O)C(O)(c3ccccc3)c3ccccc3)CC2)C1=O`, the activity, negative = inhibition is reported as inactive: 1.44%.
In the case of `Cc1ccc(C(=O)NCC2(N3CCCCC3)CCCCC2)cc1`, the activity, negative = inhibition is reported as inactive: -1.77%.
`Cc1ccccc1C(=O)NCC1(N2CCCCC2)CCCCC1` was tested, and the activity, negative = inhibition was inactive: -2.01%.
`CN(C)C1CCCC1OC(=O)C(O)(c1ccccc1)c1ccccc1` (centres undefined) was tested, and the activity, negative = inhibition was inactive: 1.9%.
In the case of `CN(C)c1ccc(C(=O)NCC2(N(C)C)CCCCC2)cc1`, the activity, negative = inhibition is reported as inactive: -0.845%.
With `C=CCN1CCN(CCOC(=O)C(O)(c2ccccc2)c2ccccc2)CC1` the activity, negative = inhibition was inactive: -0.775%.
With `O=C(NCC1(N2CCCCC2)CCCCC1)c1cc(F)c(F)cc1Cl` the activity, negative = inhibition was inactive: -1.71%.
In the case of `COc1ccc(C(=O)NCC2(N(C)C)CCCCC2)cc1`, the activity, negative = inhibition is reported as inactive: -0.74%.
For `Cc1cc(C(=O)NCC2(N3CCCCC3)CCCCC2)ccc1[N+](=O)[O-]`, the activity, negative = inhibition was inactive: -1.65%.
In the case of `CCN1CCCC(OC(=O)C2(O)c3ccccc3C=Cc3ccccc32)C1` (centres undefined), the activity, negative = inhibition is reported as inactive: 2.59%.
In the case of `O=C(NCC1(N2CCCCC2)CCCCC1)c1cccc(Br)c1`, the activity, negative = inhibition is reported as inactive: 3.57%.
`CN(C)C1(CNC(=O)c2ccc(Br)cc2)CCCCC1` was tested, and the activity, negative = inhibition was inactive: -0.954%.
`COc1cc(C(=O)NCC2(N(C)C)CCCCC2)c([N+](=O)[O-])cc1OC` was tested, and the activity, negative = inhibition was inactive: -8.8%.
`COc1cccc(C(=O)NCC2(N3CCCCC3)CCCCC2)c1` was tested, and the activity, negative = inhibition was inactive: 0.671%.
For `COc1ccc(Cl)cc1C(=O)NCC1(N(C)C)CCCCC1`, the activity, negative = inhibition was inactive: 1.99%.
`O=C(NCC1(N2CCCCC2)CCCCC1)c1cccc(Cl)c1` was tested, and the activity, negative = inhibition was inactive: -0.127%.
In the case of `O=C(OC1CN2CCC1CC2)C(CO)(c1ccccc1)c1ccccc1` (centres undefined), the activity, negative = inhibition is reported as inactive: 0.147%.
In the case of `COc1ccc(Br)c(C(=O)NCC2(N3CCCCC3)CCCCC2)c1`, the activity, negative = inhibition is reported as inactive: -7.44%.
`CC(C)Oc1ccc(C(=O)NCC2(N(C)C)CCCCC2)cc1` was tested, and the activity, negative = inhibition was inactive: -0.126%.
With `CN(C)c1cccc(C(=O)NCC2(N(C)C)CCCCC2)c1` the activity, negative = inhibition was inactive: -0.144%.
